Legend:
[1] = target: des(methyl) spinach Rubisco (ribulose-1,5-bisphosphate carboxylase-oxygenase holoenzyme) (spinach) (UniProt P00875); assay: cell-based or functional assay
[2] = target: des(methyl) spinach Rubisco (ribulose-1,5-bisphosphate carboxylase-oxygenase holoenzyme) (spinach) (UniProt P00875); assay: method not stated for the conjugate; FIG. 1 estimates the KD of Rubisco LSMT from association and dissociation on PVDF-immobilized Rubisco

carboxylase velocity of spinach Rubisco at 15 µM CO2 (µmoles/min/mg protein) [1]: 2.08 | Kd [2]: 0.1 nM
Substance: human carbonic anhydrase II (HCAII)-pea Rubisco LSMT conjugate (glutaraldehyde cross-linked) (from UniProt Q43088 38-489; P00918 2-260)
